Bioassay records (PubChem BioAssay)
Sampled rows, rich in hits. Any-hit rate of the full collection: about 2.2%.
Nrf2 block: blocks Nrf2 signaling; A549 ARE-Fluc reporter, luciferase luminescence, 18-24 h; Potency, µM (highest dose often 46 µM), for the others: at the highest dose activity change, negative = inhibition, usual class: inhibitors; 360,000 tested, 2.1% active; AID 504444; also: potency is read from the fitted curve at half-maximal effect; % is scaled to controls: 0 for no effect and ±100 for the full control effect; nearly all actives have a fitted effect of over 60% in size
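Reporter: ARE-Fluc in A549. Exposure: 18-24 h, 37 °C, 5% CO2, 5% FBS OPTI-MEM. Readouts: fluorescent cytotoxicity (CellTiter-Fluor), then luminescent Nrf2 signal after BugLite.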
A549 tox-1: A549 cytotoxicity, counter-screen for Nrf2 inhibitors | A549 ARE-Fluc cells, CellTiter-Fluor viability, 18-24 h | Potency, µM (top dose mostly 46 µM), for the others: at the highest dose activity change, negative = cytotoxicity, usual class: inhibitors | 390,000 tested, 0.16% active; also: potency is read from the fitted curve at half-maximal effect; % is scaled to controls: 0 for no effect and ±100 for the full control effect
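Cytotoxicity counterscreen: CellTiter-Fluor fluorescence was measured in A549 ARE_Fluc cells after 18-24 h of compound exposure in a concentration series. The subsequent BugLite luminescent read reports ARE-luciferase activity.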
miR-21 reporter: miR-21 reporter, rising signal | HeLa miR-21 FLuc reporter, luciferase, 48 h | Potency, µM (top dose mostly 38.3 µM), inactives show at the highest dose reporter change, positive = more light | 340,000 tested, under 10 active | AID 2288; active = well fitted rising curve with a large enough effect; inconclusive = small, poorly fitted or top-dose-only effect; inactive = no such curve, though single readings can be large or run the other way;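 note: % of control where 0% means no effect; miR-21 action dims this reporter so a rising signal means less miR-21 action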
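Compounds were titrated across several concentrations (up to approximately 40 uM) and incubated 48 hours with HeLa miR-21-FLuc reporter cells (miR-21 target sequence downstream of FLuc, endogenous miR-21). Readout was firefly luciferase luminescence after lytic detection reagent.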
GALK inh: inhibitors of human galactokinase. P51570. 270,000 tested, 0.007% active. Potency, µM (series often up to 57.5 µM), inactives show top-dose activity change, negative = inhibition, hits mostly inhibitors. Purified GALK, Kinase-Glo residual ATP luminescence. AID 1868; also: potency is read from the fitted curve at half-maximal effect; % is scaled to controls: 0 for no effect and ±100 for the full control effect
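Compounds were pin-transferred into ATP buffer (35 uM final), then GALK plus galactose (5 nM, 100 uM final) was added. After 1 h at room temperature, Kinase-Glo Plus was added and luminescence read after 10 min.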
PI4K2A inh: inhibitors of human PI4K2A; Q9BTU6; purified PI4K2A, ADP-Glo luminescence, 1 h; hits give low values; activity change, negative = inhibition, % at 76.9 µM; 420,000 tested, 0.13% active; in the data active = activity change below about -50%; inconclusive = mostly about -30% to -49%;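 also: -100% = wells without enzyme as full effect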
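ADP-Glo luminescence measured ADP generated by PI4K2A enzyme (4 ug/mL before mixing) with 1.2 mM PI substrate (pre-mix) and 300 microM ATP (pre-mix). Tris pH7.5 buffer with MgCl2, Triton X-100; 1 h reaction at ambient temperature.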
Nrf2 activator: Nrf2 pathway activation; AREc32 ARE-luciferase reporter (MCF7-derived line), luminescence, 24 h; Potency, µM (highest dose often 46.1 µM), without a hit: at the top dose activation, actives largely listed as activators; 410,000 tested, 0.31% active; also: potency is read from the fitted curve at half-maximal effect; % of control where 0% means no effect; nearly all actives have a fitted effect of over 65% in size
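Cells of the AREc32 ARE-luciferase line are plated in OPTI-MEM containing 5% FBS and left overnight at 37 deg C. Compounds are pinned in, incubation continues 24 hr, and firefly luciferase signal is then measured.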
FLuc enzyme inh: blocks purified firefly luciferase in Nrf2 counterscreen; shares compounds with Nrf2 block; purified firefly luciferase, luminescence inhibition; Potency, µM (top dose mostly 57.5 µM), for inactives: top-dose activity change, negative = inhibition, actives largely listed as inhibitors; 1,400 tested, 4% active; AID 720522; also: potency is read from the fitted curve at half-maximal effect; % is scaled to controls: 0 for no effect and ±100 for the full control effect; nearly all actives have a fitted effect of over 65% in size
A549 tox-2: toxic to A549 ARE-Fluc cells in Nrf2 counterscreen | shares compounds with Nrf2 block | A549 ARE-Fluc cells, cytotoxicity counterscreen | Potency, µM (top dose mostly 46.1 µM), for the others: at the highest dose activity change, negative = cytotoxicity, hits mostly inhibitors | 1,400 tested, 2% active | AID 720523;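 also: potency is read from the fitted curve at half-maximal effect; cells exposed to compounds for 18 to 24 hours; % is scaled to controls: 0 for no effect and ±100 for the full control effect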
Nrf2 ARE inh: Nrf2 inhibition confirmed, A549 ARE-luciferase | A549 ARE-firefly luciferase reporter, luminescence | shares compounds with Nrf2 block | 1,400 tested, 74% active | Potency, µM (highest dose often 46.1 µM), without a hit: top-dose activity change, negative = inhibition, actives largely listed as inhibitors | AID 720524; also: potency is read from the fitted curve at half-maximal effect; % is scaled to controls: 0 for no effect and ±100 for the full control effect; nearly all actives have a fitted effect of over 65% in size
The depositor's hits bear a star; ? = inconclusive; / = not tested or not shown. Unless noted, calls follow the shape of the dose curve; as a rule, active = well fitted curve in the direction sought with a large enough effect; inconclusive = small, poorly fitted or top-dose-only effect, or another doubt; inactive = no such curve, though single readings can be large; an effect the other way counts as inactive or inconclusive.

The opening 3 compounds, ahead of the listing:
| cpd | SMILES | Nrf2 block | A549 tox-1 | miR-21 reporter | GALK inh | PI4K2A inh | Nrf2 activator | FLuc enzyme inh | A549 tox-2 | Nrf2 ARE inh |
| --- | --- | --- | --- | --- | --- | --- | --- | --- | --- | --- |
| 1 | O=[N+]([O-])c1ccc2ncnc(N3CCN(Cc4ccc5c(c4)OCO5)CC3)c2c1 | 8.2µM* | -19.5% | 25.5% | 0.0% | -3.0 | -0.7% | -1.6% | -10.6% | 16.4µM* |
| 2 | O=[N+]([O-])c1cccnc1N1CCN(Cc2ccc3c(c2)OCO3)CC1 | 2.7% | -1.3% | -10.1% | -2.9% | 0.3 | 0.0% | / | / | / |
| 3 | CSCCCNC(=O)CN1C(=O)C2CCCCN2C(=O)c2ccccc21 (stereo unspecified) | / | / | / | / | 1.0 | / | / | / | / |

The whole of this part, previewed entries included:
| cpd | SMILES | Nrf2 block | A549 tox-1 | miR-21 reporter | GALK inh | PI4K2A inh | Nrf2 activator | FLuc enzyme inh | A549 tox-2 | Nrf2 ARE inh |
| --- | --- | --- | --- | --- | --- | --- | --- | --- | --- | --- |
| 1 | O=[N+]([O-])c1ccc2ncnc(N3CCN(Cc4ccc5c(c4)OCO5)CC3)c2c1 | 8.2µM* | -19.5% | 25.5% | 0.0% | -3.0 | -0.7% | -1.6% | -10.6% | 16.4µM* |
| 2 | O=[N+]([O-])c1cccnc1N1CCN(Cc2ccc3c(c2)OCO3)CC1 | 2.7% | -1.3% | -10.1% | -2.9% | 0.3 | 0.0% | / | / | / |
| 3 | CSCCCNC(=O)CN1C(=O)C2CCCCN2C(=O)c2ccccc21 (stereo unspecified) | / | / | / | / | 1.0 | / | / | / | / |
| 4 | CC(=NNC(=S)N1CC2CCC(CC2)C1)c1ccncn1 | 1.3µM* | 16.4µM* | / | / | 31.6 | 15.3% | 10.7µM* | ? | 0.366µM* |
| 5 | CC(=NNC(=S)N1CCCCC1)c1ccccn1 | / | / | / | / | -7.9 | 18.0% | / | / | / |
| 6 | CCCCn1c(CN2CCN(c3ccccc3)CC2)nc2c1c(=O)n(C)c(=O)n2C | 4.11µM* | ? | 1.5% | -0.2% | 0.5 | 0.1% | 2.4% | -12.4% | 14.6µM* |
| 7 | Cc1oc(-c2ccc(Cl)cc2)nc1CS(=O)CC(=O)NCCCN1CCCC(C)C1 (stereo unspecified) | 0.5% | 1.8% | -2.9% | 2.7% | -2.6 | 3.5% | / | / | / |
| 8 | Cc1oc(-c2ccc(Cl)cc2)nc1CS(=O)CC(=O)NCCCN1CCN(Cc2ccccc2)CC1 (stereo unspecified) | 5.8µM* | -3.5% | ? | -1.1% | -2.2 | 2.8% | 3.3% | -14.2% | 11.6µM* |
| 9 | CC(c1ccccc1)N1CC[C@H]2C=CC[C@@H](C(=O)Nc3ccc(F)c(F)c3)[C@H]2C1=O (stereo partly specified) | / | / | / | / | 0.4 | / | / | / | / |
| 10 | COc1cc2ccnc(Cc3cccc(OC)c3OC)c2cc1OC | 3.66µM* | -1.0% | 8.0% | 1.2% | -22.1 | 3.1% | 2.6% | -3.0% | 16.4µM* |

| cpd | SMILES | Nrf2 block | A549 tox-1 | miR-21 reporter | GALK inh | PI4K2A inh | Nrf2 activator | FLuc enzyme inh | A549 tox-2 | Nrf2 ARE inh |
| --- | --- | --- | --- | --- | --- | --- | --- | --- | --- | --- |
| 11 | COc1ccc2c(C(=O)NCc3ccc4c(c3)OCO4)c(-c3ccc(S(C)(=O)=O)cc3)sc2c1 | 7.31µM* | ? | / | / | 2.8 | -0.4% | -1.6% | ? | 16.4µM* |
| 12 | COC(=O)c1c(-c2ccc(S(C)(=O)=O)cc2)sc2cc(OC)ccc12 | ? | 1.2% | / | / | -0.3 | 2.9% | / | / | / |
| 13 | CN(C(=O)[C@@H](C1CC1)[C@@H](O)c1ccc(Cl)cc1)c1ccccc1 | / | / | / | / | -5.5 | / | / | / | / |
| 14 | COc1ccc2c(c1)c(C)cc[n+]2Cc1ccccc1 | 6.51µM* | -17.6% | 28.1% | -3.0% | -7.4 | -0.7% | -0.7% | -0.3% | 10.3µM* |
| 15 | CC(=O)Nc1ccccc1OCC(=O)c1cc(C)n(Cc2cccs2)c1C | 0.411µM* | ? | -15.4% | -0.6% | -8.2 | 2.8% | 15.1µM* | -3.9% | -23.6% |
| 16 | Cc1cc(C(=O)COc2cccnc2[N+](=O)[O-])c(C)n1Cc1cccs1 | ? | -2.8% | -16.1% | -1.3% | -5.4 | 0.3% | / | / | / |
| 17 | Cn1c(=O)c2c(nc(SCC(=O)Nc3ccccc3)n2Cc2ccccc2F)n(C)c1=O | 6.7% | -9.8% | 0.4% | / | 4.9 | -1.0% | / | / | / |
| 18 | Cn1c(=O)c2c(nc(SCC(=O)Nc3ccc(OC(F)(F)F)cc3)n2Cc2cccc(C(F)(F)F)c2)n(C)c1=O | 7.31µM* | ? | 19.1% | / | 3.6 | -0.3% | 1.5% | ? | 14.6µM* |

Some values from the list:
entry 2 | Nrf2 block: 2.7%
entry 18 | FLuc enzyme inh: 1.5%
entry 8 | Nrf2 activator: 2.8%
